# US5464855A, “Thiophene-2-carboxamidotetrazoles and pharmaceutical use thereof” (Warner-Lambert Company, priority 1994, dated 1995)
# Target: T1, Mac-1 (Homo sapiens, UniProt P05107+P11215)
# T1 construct: isolate neutrophils from ethylenediaminetetraacetic acid (EDTA)-treated venous blood obtained from healthy human volunteers; endogenous in cells; host or cells: human neutrophils (PMN) isolated from venous blood of healthy volunteers
# Test: Human neutrophil Mac-1 adhesion assay (fMLP-stimulated PMN adhesion to KLH-coated plates)
# Format: cell-based
row,SMILES,IC50 [µM]
1,"CC(C)Oc1c(C(=O)Nc2nnn[nH]2)sc2c1CCCC2 [Example 1, 3-Isopropoxy-4,5,6,7-tetrahydro-benzo[b]thiophene-2-carboxylic acid (1H-tetrazol-5-yl)-amide]",1.5
2,"CC(C)Oc1c(C(=O)Nc2nnn[nH]2)sc2c1CSC2 [Example 3, 3-Isopropoxy-4,6-dihydro-thieno[3,4-b]thiophene-2-carboxylic acid (1H-tetrazol-5-yl)-amide]",1.2
3,"CC(C)Oc1c(C(=O)Nc2nnn[nH]2)sc2c1CSCC2 [Example 4, 3-Isopropoxy-6,7-dihydro-4H-thieno[3,2-c]thiopyran-2-carboxylic acid (1H-tetrazol-5-yl)-amide]",3
4,"CC(C)Oc1c(C(=O)Nc2nnn[nH]2)sc2c1C[S+]([O-])CC2 (stereo not drawn) [Example 5, 3-Isopropoxy-5-oxo-6,7-dihydro-4H-thieno [3,2-c]thiopyran-2-carboxylic acid (1H-tetrazol-5-yl)-amide]",22.7
5,"CC(C)Oc1c(C(=O)Nc2nnn[nH]2)sc2c1CN(C(=O)OC(C)(C)C)CC2 [Example 7, 3-Isopropoxy-5-tert-butoxycarbonyl-6,7-dihydro-4H-thieno[3,2-c]pyridine-2-carboxylic acid (1H-tetrazol-5-yl)amide]",21.2
6,"CC(C)Oc1c(C(=O)Nc2nn[nH]n2)sc2c1CNCC2 [Example 8, 3-Isopropoxy-6,7-dihydro-4H-thieno[3,2-c]pyridine-2-carboxylic acid (1H-tetrazol-5-yl)amide hydrochloride]",4.3

# Counter-ions that a name gives are not always drawn.
